This is an account of results in ChEMBL document CHEMBL3856254, “Synthesis and biological evaluation of N-cyanoalkyl-, N-aminoalkyl-, and N-guanidinoalkyl-substituted 4-aminoquinoline derivatives as potent, selective, brain permeable antitrypanosomal agents” (Bioorg Med Chem, 2016).

The nature of this data set: in vitro. Conditions: rat, l6.

Take `N#CCCCCCCCCNc1c2c(nc3ccccc13)CCCC2`: the selectivity ratio came out at 4.2.
